Experimental findings from patent US20190263796A1, “LIM KINASE INHIBITORS, PHARMACEUTICAL COMPOSITION AND METHOD OF USE IN LIMK-MEDIATED DISEASES” (CELLIPSE, priority 2016, published 2019) are described below.

By UniProt entry, the sequences of proteins in these tests, tags left out.
UniProt P15056, whole entry: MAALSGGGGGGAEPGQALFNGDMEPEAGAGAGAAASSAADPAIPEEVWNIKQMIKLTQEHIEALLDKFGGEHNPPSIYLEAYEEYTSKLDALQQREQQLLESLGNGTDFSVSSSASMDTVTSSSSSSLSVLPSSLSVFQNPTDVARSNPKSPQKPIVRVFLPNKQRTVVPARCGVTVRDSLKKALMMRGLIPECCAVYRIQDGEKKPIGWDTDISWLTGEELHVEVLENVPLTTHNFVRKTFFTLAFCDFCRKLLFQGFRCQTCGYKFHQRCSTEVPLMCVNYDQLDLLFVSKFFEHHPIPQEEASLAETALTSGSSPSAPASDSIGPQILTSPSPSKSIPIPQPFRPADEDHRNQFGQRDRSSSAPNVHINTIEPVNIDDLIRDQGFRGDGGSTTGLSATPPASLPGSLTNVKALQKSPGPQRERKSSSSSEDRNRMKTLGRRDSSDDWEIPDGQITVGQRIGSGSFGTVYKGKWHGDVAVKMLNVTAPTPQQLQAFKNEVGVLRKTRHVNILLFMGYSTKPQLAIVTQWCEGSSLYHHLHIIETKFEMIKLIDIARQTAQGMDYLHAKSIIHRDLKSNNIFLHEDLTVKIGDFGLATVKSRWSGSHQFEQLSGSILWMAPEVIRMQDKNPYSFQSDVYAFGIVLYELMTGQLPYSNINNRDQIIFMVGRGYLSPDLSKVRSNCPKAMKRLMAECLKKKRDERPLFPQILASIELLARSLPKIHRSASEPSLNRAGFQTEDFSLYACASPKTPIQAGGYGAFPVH

Assay [1] concerns P-MEK/Total MEK. Nature of the assay: Western blot MEK1 phosphorylation, MOLM-13. Type of assay: cell-based. As to conditions: MOLM-13 cells; IC50 P-MEK/Total MEK divided by IC50 Phospho-Ser3-Cofilin/Total Cofilin. The method, then:
MOLM-13 cell line was originally purchased from the Leibniz-Institut Deutsche Sammlung von Mikroorganismen und Zellkulturen GmbH (DSMZ). MOLM-13 cells are cultured in RPMI 1640 20% (v/v) FBS supplemented with 100 U/mL^−1 penicillin, 0.1 mg·mL^−1 streptomycin (PAN Biotech P06-07100). Cells were maintained at 37° C. with 5% CO2.
(§1) In a 6 wells plate (Falcon 353046), 2·10^6 cells in 1.5 mL medium are treated for 2 h with compounds. Cells are then collected and cell lysis is performed at 4° C. using RIPA buffer supplemented with protease inhibitors cocktail (Sigma-Aldrich P8340) and phosphatase inhibitors cocktail (Sigma-Aldrich P5726). Following centrifugation 30 min 15000 g 4° C., supernatants are mixed with Laemmli buffer and denaturation is performed by heating 5 min 95° C. 10 μL of samples are subjected to electrophoresis on 15% SDS-PAGE. […] For each concentration of compound, ratio between phosphorylated cofilin and total cofilin is determined. This ratio is then expressed as percentage of control ratio (i.e., ratio from DMSO treated cells). IC50 P-MEK/Total MEK is then determined.
(§2) Selectivity ratios are calculated by dividing the IC50 P-MEK/Total MEK value (μM) by the IC50 Phospho-Ser3-Cofilin/Total Cofilin value (μM).
For orientation: Immunoblotting shows a protein as a band on a membrane.

Assay [2] has as its system P-MEK/Total MEK. As to the kind of experiment: Western blot MEK1 phosphorylation, MOLM-14. As to conditions: MOLM-14 cells; IC50 P-MEK/Total MEK divided by IC50 Phospho-Ser3-Cofilin/Total Cofilin. Type of assay: cell-based. As to the method: MOLM-14 cell line was originally purchased from the American Type Culture Collection (ATCC). MOLM-14 cells are cultured in MEM alpha 10% (v/v) FBS supplemented with 100 U/mL^−1 penicillin, 0.1 mg·mL^−1 streptomycin (PAN Biotech P06-07100). Cells were maintained at 37° C. with 5% CO2.
as §1, §2

Assay [3] concerns P-MEK/Total MEK. Nature of the assay: Western blot MEK1 phosphorylation, Kasumi-1. Type of assay: cell-based. As to conditions: Kasumi-1 cells; IC50 P-MEK/Total MEK divided by IC50 Phospho-Ser3-Cofilin/Total Cofilin. The method, then: Kasumi-1 cell line was originally purchased from the American Type Culture Collection (ATCC). Kasumi-1 cells are cultured in RPMI 1640 20% (v/v) FBS supplemented with 100 U/mL^−1 penicillin, 0.1 mg·mL^−1 streptomycin (PAN Biotech P06-07100). Cells were maintained at 37° C. with 5% CO2.
as §1, §2

Assay [4] has as its system P-MEK/Total MEK. As to the kind of experiment: Western blot MEK1 phosphorylation, HL-60. The format is cell-based. As to conditions: HL-60 cells; IC50 P-MEK/Total MEK divided by IC50 Phospho-Ser3-Cofilin/Total Cofilin. The method, then:
HL-60 cell line was originally purchased from the Leibniz-Institut Deutsche Sammlung von Mikroorganismen und Zellkulturen GmbH (DSMZ). HL-60 cells are cultured in RPMI 1640 10% (v/v) FBS supplemented with 100 U/mL^−1 penicillin, 0.1 mg·mL^−1 streptomycin (PAN Biotech P06-07100). Cells were maintained at 37° C. with 5% CO2.
as §1, §2

The target in assay [5] is B-Raf(h) (Homo sapiens, UniProt P15056). As to the kind of experiment: B-Raf kinase assay (Eurofins Panlabs, radiometric). The arrangement: purchased Eurofins Panlabs Inc. (contract assay service). As to conditions: IC50 B-Raf (nM) divided by IC50 LIMK1 (nM); Table 8. Type of assay: biochemical. The method, then:
IC50 B-Raf is then determined.
Selectivity ratios are calculated by dividing the IC50 B-Raf (nM) by the IC50 LIMK1 (nM).

Assay [6] relates to P-MEK/Total MEK. As to the kind of experiment: Western blot MEK1 phosphorylation, MV4-11. Type of assay: cell-based. As to conditions: MV4-11 cells; IC50 P-MEK/Total MEK divided by IC50 Phospho-Ser3-Cofilin/Total Cofilin. As to the method:
MV4-11 cell line was originally purchased from the American Type Culture Collection (ATCC) or from the Leibniz-Institut Deutsche Sammlung von Mikroorganismen und Zellkulturen GmbH (DSMZ). MV4-11 cells are cultured in RPMI 1640 20% (v/v) FBS supplemented with 100 U/mL^−1 penicillin, 0.1 mg·mL^−1 streptomycin (PAN Biotech P06-07100) and 2 mM Glutamine (Sigma-Aldrich 59202C). Cells were maintained at 37° C. with 5% CO2.
as §1, §2

In assay [7] the test system is P-MEK/Total MEK. Nature of the assay: Western blot MEK1 phosphorylation, K-562. Type of assay: cell-based. As to conditions: K562 cells; IC50 P-MEK/Total MEK divided by IC50 Phospho-Ser3-Cofilin/Total Cofilin. The method, then:
K-562 cell line was originally purchased from the Leibniz-Institut Deutsche Sammlung von Mikroorganismen und Zellkulturen GmbH (DSMZ). K-562 cells are cultured in RPMI 1640 10% (v/v) FBS supplemented with 100 U/mL^−1 penicillin, 0.1 mg·mL^−1 streptomycin (PAN Biotech P06-07100). Cells were maintained at 37° C. with 5% CO2.
as §1, §2

Assay [8] relates to P-MEK/Total MEK. Nature of the assay: Western blot MEK1 phosphorylation, THP-1. Type of assay: cell-based. As to conditions: THP-1 cells; IC50 P-MEK/Total MEK divided by IC50 Phospho-Ser3-Cofilin/Total Cofilin. The method, then:
THP-1 cell line was originally purchased from the Leibniz-Institut Deutsche Sammlung von Mikroorganismen und Zellkulturen GmbH (DSMZ). THP-1 cells are cultured in RPMI 1640 20% (v/v) FBS supplemented with 100 U/mL^−1 penicillin, 0.1 mg·mL^−1 streptomycin (PAN Biotech P06-07100). Cells were maintained at 37° C. with 5% CO2.
as §1, §2

Turning to `CNC(=O)Cc1nc(-c2cccc(NS(=O)(=O)c3c(F)cccc3F)c2F)c(-c2ccnc(Nc3ccccc3)n2)s1` [9 (Na)], the Selectivity ratio in assay [1] amounted to 42; in assay [2] it was 90; in assay [3] it was 25; in assay [4], 15; in assay [5], 15.
Take `CNC(=O)Cc1nc(-c2cccc(NS(=O)(=O)c3c(F)cccc3F)c2F)c(-c2ccnc(Nc3ccccc3)n2)s1` [Compound 9, 2-(4-(3-(2,6-difluorophenylsulfonamido)-2-fluorophenyl)-5-(2-(phenylamino)pyrimidin-4-yl)thiazol-2-yl)-N-methylacetamide]: the Selectivity ratio in assay [1] is recorded as 125; in assay [2], 125; in assay [6], 3; in assay [7], 7; in assay [8], 8; in assay [5] it was 20.
